PubChem BioAssay (EPA / NIEHS)
The list shows a part of the results, in another mix than the full data. Calls of active or inactive are those of the source. How the source made its calls: active means hit-call score of the fitted dose curve at least 0.9, where 1 is the maximum; inactive means score below 0.9.

Columns and labels:
[1] = CCTE_Shafer_MEA_acute_per_burst_spike_number_mean: CCTE's Neural Acute Assay for Average Number of Spikes Per Burst, Shafer Lab (AID 2284015);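 further: hits are decreases in mean spikes per burst versus baseline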
Method in brief: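 Rat primary cortical neurons on 48-well MEAs (DIV 13 or 15) were treated with 0.03-40 uM compound at 37 C. Mean spikes per burst over 40 min were recorded before and after exposure and expressed as percent change from baseline, relative to DMSO.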

[2] = CCTE_Shafer_MEA_acute_interburst_interval_mean: CCTE's Neural Acute Assay for Mean Interburst Interval, Shafer Lab (AID 2284016);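 further: percent change of mean interburst interval versus each well's own pre-dose baseline; curves fitted for decrease in interburst interval relative to DMSO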
Method: (§1) CCTE_Shafer_MEA_acute assay is conducted using Axion Biosystems 48 well microelectrode array (MEA) plates and Maestro recording system. Each well of the MEA plate contains a grid of 16 microelectrodes embedded in the culture surface. Electrically active cells, such as neurons, can be cultured over the electrodes, and electrical activity in these cells can be recorded extracellularly. The spontaneous firing of neurons is captured from each electrode on a microsecond timescale providing both temporally and spatially precise data. […] The CCTE_Shafer_MEA_acute assay uses primary cultures of rat cortical neurons. […] The recordings before and after chemical treatment are used to calculate a percent change in the mean inter-burst interval in each well.Data from the assay component CCTE_Shafer_MEA_acute_interburst_interval_mean was analyzed into 1 assay endpoint. This assay endpoint, CCTE_Shafer_MEA_acute_interburst_interval_mean, was analyzed in the negative analysis fitting direction relative to DMSO as the negative control and baseline of activity. […]
(§2) Spontaneous activity in the cortical cultures was recorded using an Axion Biosystems Maestro 768 channel amplifier and Axion Integrated Studios (AxIS) v1.8 (or later) software. […] Any electrodes with rms noise levels greater than 5 uV were grounded (e.g., no data were recorded). […]

[3] = CCTE_Shafer_MEA_acute_burst_percentage_mean: CCTE's Neural Acute Assay for Percentage of Spikes in a Burst, Shafer Lab (AID 2284017)
Method in brief: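 Primary rat cortical neurons on 48-well MEA plates, treated on DIV 13 or 15 at 0.03-40 uM. Spikes detected at 8x rms noise at 37C; percent change from 40-min baseline to 40-min post-dose recording, fitted versus DMSO.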

[4] = CCTE_Shafer_MEA_acute_burst_percentage_std: CCTE's Neural Acute Assay for Standard Deviation of Burst Percentage, Shafer Lab (AID 2284018);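 further: fitted in the negative direction so actives lower burst percentage SD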
Method in brief: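 Primary rat cortical neurons on 16-electrode MEA wells were recorded 40 min at baseline (DIV 13 or 15), then 40 min after compound (0.03-40 uM), at 37 C. Well value is SD across electrodes of spikes-in-bursts/total spikes; endpoint is percent change, DMSO-referenced.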

[5] = CCTE_Shafer_MEA_acute_per_network_burst_spike_number_mean: CCTE's Neural Acute Assay for Average Number of Spikes in a Network Burst, Shafer Lab (AID 2284019)
Method in brief: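 Acute exposure of rat primary cortical networks (DIV 13/15) on MEAs; adaptive spike detection at 8x rms noise, 37 C. Percent change in spikes per network burst after 40 min with compound (0.03-40 uM), negative direction vs DMSO.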

[6] = CCTE_Shafer_MEA_acute_per_network_burst_spike_number_std: CCTE's Neural Acute Assay for Standard Deviation of Number of Spikes in a Network Burst, Shafer Lab (AID 2284020);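 further: fitted for decrease in spike-number SD versus DMSO so actives lower it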
Method in brief: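 Acute MEA exposure, rat cortical neurons, 0.03-40 uM. Per-well % change versus own baseline; DMSO as negative control.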

[7] = CCTE_Shafer_MEA_acute_per_network_burst_electrodes_number_mean: CCTE's Neural Acute Assay for Mean Number of Electrodes in a Network Burst, Shafer Lab (AID 2284021);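 further: curves fitted for decreases only so hits reduce electrodes per burst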
Method in brief: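 Percent change from baseline was computed as mean electrode count per network burst, comparing 40 min recordings before and during compound (0.03-40 uM) exposure. Cultures were rat cortical neurons at DIV 13 or 15, recorded on MEAs at 37 C with an adaptive 8x rms threshold.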

[8] = CCTE_Shafer_MEA_acute_network_burst_percentage: CCTE's Neural Acute Assay for Percentage of Network Bursts, Shafer Lab (AID 2284022);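 further: curves fitted for loss so actives lower network burst percentage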
Method: as §1, with “network burst percentage” for “mean inter-burst interval”, “CCTE_Shafer_MEA_acute_network_burst_percentage” for “CCTE_Shafer_MEA_acute_interburst_interval_mean”, “CCTE_Shafer_MEA_acute_network_burst_percentage,” for “CCTE_Shafer_MEA_acute_interburst_interval_mean,”
as §2

[9] = CCTE_Shafer_MEA_acute_cross_correlation_area: CCTE's Neural Acute Assay for Area of Cross Correlation, Shafer Lab (AID 2284024);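 further: area under pooled inter-electrode spike cross-correlation near zero lag as percent change from own baseline; curves fitted for loss of cross-correlation area so actives lower synchrony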
Method in brief: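 Percent change in well-wide cross-correlation area (window around zero lag) between 40 min baseline and 40 min post-compound recordings, 37 C; rat cortical cultures on MEA at DIV 13 or 15, dosed 0.03-40 uM, wells needing >/= 10 active electrodes.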

[10] = CCTE_Shafer_MEA_acute_cross_correlation_HWHM: CCTE's Neural Acute Assay for Cross Correlation at Half Width at Half Maximum, Shafer Lab (AID 2284026);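 further: percent change per well from pre-dose baseline in spike cross-correlogram half width; hits are a decrease in cross-correlogram half width relative to DMSO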
Method in brief: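 Per-well percent change in cross-correlogram half width at half maximum, derived from 40-min recordings before and after compound (0.03-40 uM) at 37 C. Cultures were rat cortical neurons, DIV 13 or 15, with adaptive spike detection at 8x rms.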

Measured: outcome

O=[N+]([O-])c1cccc([N+](=O)[O-])c1
inactive: all assays above

CC(C)OP(C)(=O)OC(C)C
inactive: all assays above
